Test results from ChEMBL document CHEMBL3108713, “Identification of ML251, a Potent Inhibitor of T. brucei and T. cruzi Phosphofructokinase” (ACS Med Chem Lett, 2014).

Molecular target: T1, ATP-dependent 6-phosphofructokinase (Trypanosoma brucei, UniProt O15648)
T1 sequence (O15648 whole entry): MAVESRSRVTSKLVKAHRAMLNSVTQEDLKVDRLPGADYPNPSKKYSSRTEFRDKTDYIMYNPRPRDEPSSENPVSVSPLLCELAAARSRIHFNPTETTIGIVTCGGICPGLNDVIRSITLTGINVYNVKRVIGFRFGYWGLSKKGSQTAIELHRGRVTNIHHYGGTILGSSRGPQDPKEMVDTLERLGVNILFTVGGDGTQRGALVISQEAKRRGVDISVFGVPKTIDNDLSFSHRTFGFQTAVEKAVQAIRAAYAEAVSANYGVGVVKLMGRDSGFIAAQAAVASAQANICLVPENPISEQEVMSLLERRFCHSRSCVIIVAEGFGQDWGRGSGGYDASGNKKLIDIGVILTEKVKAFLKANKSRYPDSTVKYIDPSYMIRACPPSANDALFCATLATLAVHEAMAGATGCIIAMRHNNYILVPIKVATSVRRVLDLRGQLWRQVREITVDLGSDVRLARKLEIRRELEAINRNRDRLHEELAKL
Assay: Inhibition of Trypanosoma brucei PFK-mediated ADP production using ATP/fructose-6-phosphate as substrate by luciferase based luminescence assay
How it was run: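 Recombinant enzyme; ADP formed by PFK detected with modified luciferase (ADP-Glo) luminescent end-point in 1536-well format.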

Cc1cc(NS(=O)(=O)c2ccc(N)cc2)no1 [SULFAMETHOXAZOLE]
pIC50: < 4.24

pIC50: −log10 of the molar value.
